Reference: US7833553B2, “Sulfur-containing proanthocyanidin oligomer compositon and process for producing the same” (Amino Up Chemical Co. Ltd., priority 2003, dated 2010)

System: potassium bromate-induced acute kidney failure, Wistar rats
Assay: Rat model of potassium bromate-induced acute kidney failure
Format: in vivo
Details: 10 mg/kg oral daily for 7 days, Day 0
Description: In order to elucidate how high the antioxidant capacity of Substance 1 is as compared with other antioxidant polyphenol materials, comparative tests were performed on rat models of potassium bromate-induced acute kidney failure.
Wistar rats (male, 12 weeks in age) were divided as follows.
Potassium bromate was intraperitoneally administered in a single dose of 65 mg/kg body weight. Substance 1, Substance 5, and each comparative substance were orally administered every day once a day in a dose of 10 mg/kg body weight before 1 week (Day −7) from start (Day 0) of the administration of potassium bromate up until the day after Day 0. At the day of administration of potassium bromate, the substances were administered 30 minutes before or after the administration of potassium bromate. On Day −7, 0, and 2, blood was collected from the cervical vein and the polyphenol level, lipid peroxide level, TEAC, urea nitrogen level, and creatinine level in the blood were measured.
Since the effects of Substance 1 and each comparative substance on potassium bromate-induced acute kidney failure are attributable to antioxidating action, blood polyphenol level, blood antioxidant capacity (TEAC), and blood lipid peroxide level as indicator of antioxidation, and blood urea nitrogen level and blood creatinine level as indicators of clinical outcome in kidney failure were examined. […]

catechin [Comparative Substance 2]
blood polyphenol level: followed by Comparative Substance 2 group
